The text below walks through data of patent US8962831B2, “Tyrosine kinase inhibitors” (Principia Biopharma Inc., priority 2011, dated 2015).

Sequences of proteins named here, by UniProt entry; tags and fusion partners are left off. A change or cut given only in a name is not applied to a line headed by its entry.
UniProt Q06187: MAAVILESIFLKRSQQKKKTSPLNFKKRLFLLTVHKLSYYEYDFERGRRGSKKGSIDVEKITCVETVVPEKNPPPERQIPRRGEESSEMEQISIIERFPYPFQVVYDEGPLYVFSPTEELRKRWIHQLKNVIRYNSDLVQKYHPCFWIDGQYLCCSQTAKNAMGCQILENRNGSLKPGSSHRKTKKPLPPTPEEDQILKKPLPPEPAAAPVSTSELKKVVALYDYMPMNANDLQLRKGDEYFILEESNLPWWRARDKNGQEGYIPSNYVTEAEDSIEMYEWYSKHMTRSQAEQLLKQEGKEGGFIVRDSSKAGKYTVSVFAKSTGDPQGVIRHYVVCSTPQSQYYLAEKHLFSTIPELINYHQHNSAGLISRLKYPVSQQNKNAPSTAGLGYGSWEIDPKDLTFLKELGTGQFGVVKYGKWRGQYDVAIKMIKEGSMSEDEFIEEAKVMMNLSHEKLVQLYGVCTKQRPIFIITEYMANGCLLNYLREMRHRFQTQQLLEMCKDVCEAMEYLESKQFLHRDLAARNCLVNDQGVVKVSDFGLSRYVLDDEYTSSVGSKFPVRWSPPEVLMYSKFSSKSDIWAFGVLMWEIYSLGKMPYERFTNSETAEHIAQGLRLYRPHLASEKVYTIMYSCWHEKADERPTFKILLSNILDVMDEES

In the assay the target is human recombinant Btk (Homo sapiens, UniProt Q06187). The assay can be described thus: Btk enzymatic activity assay (Caliper-based kinase assay). In kind it is biochemical. To be noted: human recombinant Btk 2 nM, ATP 40 μM, room temperature 3 h, compounds of Cpd Table 1.

As usually defined, the IC50 is the midpoint of a concentration-inhibition curve.

Consider `N#CC(=CC1CCCN1)C(=O)N1CCCC1Cn1nc(-c2ccc(Oc3ccccc3)cc2F)c2c(N)ncnc21` (stereo not shown) [Example 186, N-(2-(4-amino-3-(4-phenoxyphenyl)-1H-pyrazolo[3,4-d]pyrimidin-1-yl)ethyl)-2-cyano-3-cyclopropyl-N-methyl acrylamide], for which the 50% inhibitory concentration (IC50) stood at 3.7 nM.
